Experiment [1] concerns the target GLS1 (purified recombinant human GAC) (Homo sapiens, UniProt O94925). Description: GLS1 enzymatic activity assay (dual-coupled, Amplex UltraRed/resorufin). As to conditions: read-out: GLS1 IC50. The procedure:
GLS1 Enzymatic Activity Assay
The inhibition of purified recombinant human GAC by varying concentrations of inhibitors is assessed via a dual-coupled enzymatic assay. The glutamate produced by the glutaminase reaction is used by glutamate oxidase to produce α-ketoglutarate, ammonia, and hydrogen peroxide, with this hydrogen peroxide subsequently being used by horseradish peroxidase to produce resorufin in the presence of Amplex UltraRed. The assay buffer consisted of 50 mM Hepes (pH 7.4), 0.25 mM EDTA and 0.1 mM Triton X-100. GAC was incubated with potassium phosphate (10 minutes at room temperature) prior to incubation with inhibitor (10 minutes at room temperature). The final reaction conditions were as follows: 2 nM GAC, 50 mM potassium phosphate, 100 mU/mL glutamate oxidase (Sigma), 1 mM glutamine (Sigma), 100 mU/mL horseradish peroxidase (Sigma), 75 μM Amplex UltraRed (Life Technologies), and 1% (v/v) DMSO. The production of resorufin was monitored on a Perkin Elmer Envision plate reader (excitation 530 nm, emission 590 nm) either in a kinetics or endpoint mode (at 20 minutes). IC50 values were calculated using a four-parameter logistic curve fit.

Chains of the proteins cited; added tags and fusions are not shown. Residues count along the entry.
UniProt O94925, 55-598 isoform 3 limits assumed: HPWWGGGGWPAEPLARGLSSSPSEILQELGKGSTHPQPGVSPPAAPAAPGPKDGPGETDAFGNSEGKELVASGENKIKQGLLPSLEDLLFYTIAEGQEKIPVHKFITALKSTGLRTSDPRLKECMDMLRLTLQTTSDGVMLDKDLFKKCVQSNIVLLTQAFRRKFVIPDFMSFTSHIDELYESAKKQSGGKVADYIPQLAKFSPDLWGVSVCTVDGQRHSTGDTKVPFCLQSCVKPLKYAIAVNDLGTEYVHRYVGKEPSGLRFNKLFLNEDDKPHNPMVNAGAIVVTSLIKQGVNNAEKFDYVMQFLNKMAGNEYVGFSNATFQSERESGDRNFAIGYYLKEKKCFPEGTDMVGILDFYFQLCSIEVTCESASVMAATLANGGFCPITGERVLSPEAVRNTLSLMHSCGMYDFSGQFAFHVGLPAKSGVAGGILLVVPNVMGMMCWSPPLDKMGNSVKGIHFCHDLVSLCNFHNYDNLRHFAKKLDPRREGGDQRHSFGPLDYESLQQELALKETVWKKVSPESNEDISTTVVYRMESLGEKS

The test system of experiment [2] is A549 cells. Description: A549 proliferation (viability) assay, Cell Titer Fluor, 72 hours. As to conditions: read-out: A549 EC50. The method, then:
A549 cells were routinely maintained in RPMI 1640 media (Gibco catalog number 11875-093) supplemented with 10% dialyzed fetal bovine serum using a humidified incubator (37° C., 5% CO2 and ambient O2). In preparation for the viability assay, cells were inoculated into 384-well black CulturPlates (Perkin Elmer) at a density of 1000 cells/well in a volume of 40 uL. Following a 24-hour incubation at 37° C., 5% CO2 and ambient O2, cells were treated with compound (10 uL) in a final DMSO concentration of 0.5% (v/v). The microplates were then incubated for 72 hours (37° C., 5% CO2 and ambient O2). Cell Titer Fluor (Promega) was subsequently added (10 uL of 6× reagent) and mixed for 15 minutes at room temperature. The plates were then incubated for 30 minutes (37° C., 5% CO2 and ambient O2) and fluorescence was subsequently read on the Perkin Elmer Envision plate reader. EC50 values were calculated using a four-parameter logistic curve fit.

Consider one compound from patent US20160002204A1 (Board of Regents, The University of Texas System, priority 2014, published 2016).

Take `CC(=O)O[C@H](C(=O)Nc1ccn(CCCCn2cc(C(=O)NCc3cccc(OC(F)(F)F)c3)nn2)c(=O)c1)c1ccccc1`: in experiment [1], the half-inhibitory concentration (IC50) is < 0.1 µM. Besides, the EC50 in experiment [2] lay in the range of 0.1 to 0.5 µM.
